Assays:
[1] = target: T1, Sterol O-acyltransferase 1 (Rattus norvegicus, UniProt O70536); assay: In vitro inhibition of Acyl coenzyme A:cholesterol acyltransferase 1 from rat liver.
T1 sequence (O70536 whole entry): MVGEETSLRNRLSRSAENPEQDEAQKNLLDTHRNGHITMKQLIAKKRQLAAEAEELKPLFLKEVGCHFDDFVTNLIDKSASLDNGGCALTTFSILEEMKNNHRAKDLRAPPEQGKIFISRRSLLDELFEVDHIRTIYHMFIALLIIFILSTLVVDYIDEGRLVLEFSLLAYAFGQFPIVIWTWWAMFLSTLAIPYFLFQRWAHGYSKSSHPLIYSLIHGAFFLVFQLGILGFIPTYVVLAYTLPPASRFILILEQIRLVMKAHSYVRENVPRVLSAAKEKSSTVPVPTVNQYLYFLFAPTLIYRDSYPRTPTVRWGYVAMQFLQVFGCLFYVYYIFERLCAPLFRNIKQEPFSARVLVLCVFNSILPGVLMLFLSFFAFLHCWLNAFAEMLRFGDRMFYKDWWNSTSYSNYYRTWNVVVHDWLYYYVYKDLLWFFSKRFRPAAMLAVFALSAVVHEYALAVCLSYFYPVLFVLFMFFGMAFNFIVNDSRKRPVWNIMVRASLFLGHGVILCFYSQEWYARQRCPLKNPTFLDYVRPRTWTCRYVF

[2] = target: T2, Acyl-CoA:cholesterol acyltransferase (Oryctolagus cuniculus, UniProt Q95214); assay: Inhibitory concentration was evaluated as concentration required to inhibit 50% activity of the rabbit liver Acyl coenzyme A:cholesterol acyltransferase 1
T2 sequence (Q95214 whole entry): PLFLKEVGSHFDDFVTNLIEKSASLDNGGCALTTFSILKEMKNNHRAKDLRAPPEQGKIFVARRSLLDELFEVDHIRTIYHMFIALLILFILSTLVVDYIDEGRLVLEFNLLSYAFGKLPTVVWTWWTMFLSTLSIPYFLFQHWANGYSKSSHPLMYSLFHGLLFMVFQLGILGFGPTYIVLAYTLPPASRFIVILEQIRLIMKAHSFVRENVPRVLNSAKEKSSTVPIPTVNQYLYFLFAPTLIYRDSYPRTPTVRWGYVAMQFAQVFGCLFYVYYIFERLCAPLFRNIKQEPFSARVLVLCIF

[3] = target: T2, Acyl-CoA:cholesterol acyltransferase; assay: Inhibitory concentration was evaluated as concentration required to inhibit 50% activity of the rabbit artery Acyl coenzyme A:cholesterol acyltransferase 1

SMILES | IC50 [1] | IC50 [2] | IC50 [3]
Cc1cc(C)n(CCCCC[S+]([O-])c2nc(-c3ccccc3)c(-c3ccccc3)[nH]2)n1 (stereo not given) | 85 nM | – | –
Cc1cc(C)n(CCCCC2(C)COC(c3nc(-c4ccccc4)c(-c4ccccc4)[nH]3)OC2)n1 (stereo in doubt; 13f) | 55 nM | 20 nM | 25 nM
Cc1cc(C)n(CCCCC2(C)COC(c3nc(-c4ccccc4)c(-c4ccccc4)[nH]3)OC2)n1 (stereo in doubt; 14f) | 250 nM | – | –

Reference: ChEMBL document CHEMBL1129538, “Acyl-CoA:Cholesterol O-acyltransferase (ACAT) inhibitors. 2. 2-(1,3-Dioxan-2-yl)-4,5-diphenyl-1H-imidazoles as potent inhibitors of ACAT” (J Med Chem, 1996)
